Biological target: Angiotensin Converting Enzyme (ACE) (Homo sapiens, UniProt P12821)
Assay: At-line ACE assay (HHL hydrolysis, flash-HPLC read-out)
Type: biochemical
Excerpt: MAP and ITP as novel ACE inhibiting peptides were identified in samples by using 2-dimensional-chromatographic-separation combined with an at-line ACE activity assay and mass spectrometry for identification. In the first analysis the peptide mixture is separated on an ODS3 liquid chromatography (LC) column. An activity profile is created from fractions collected from the analysis using a slightly modified Matsui assay. In the second analysis the fractions from the first column showing a high activity are further separated on a Biosuite LC column using a different gradient profile. The fractions collected from this second column are split into two parts, one part is used for the activity measurement while MS and MS-MS is applied on the other part for identification of the peptides present.
20 μl of a 10% (w/v) solution of PH in Milli-Q water was injected on a 150×2.1 Inertsil 5 ODS3 column with a particle size of 5 μm (Varian, Middelburg, the Netherlands). Mobile phase A consisted of a 0.1% trifluoroacetic acid (TFA) solution in Milli-Q water. Mobile phase B consisted of a 0.1% TFA solution in acetonitrile. The initial eluent composition was 100% A. The eluent was kept at 100% A for 5 minutes. Then a linear gradient was started in 10 minutes to 5% B, followed by a linear gradient in 10 minutes to 30% B. The column was flushed by raising the concentration of B to 70% in 5 minutes, and was kept at 70% B for another 5 minutes. After this the eluent was reduced to 100% A in 1 minute and equilibrated for 9 minutes. The total run time was 50 minutes. The effluent flow was 0.2 ml min^−1 and the column temperature was set at 60° C. A UV chromatogram was recorded at 215 nm. […] After the reaction the plate was cooled in melting ice and analysed on a flash-HPLC-column. […] Hippuric acid (H) and HHL were monitored at 280 nm. The peak heights of H and HHL were measured and the ACEI of each fraction was calculated according to the equation: […]
The degree of hydrolysis (DH) was calculated by expressing the peak height of H as a fraction of the sum of the peak heights of H and HHL.

Sequences of proteins named here, by UniProt entry; tags and fusion partners are left off. Residues count along the entry.
UniProt P12821, 30-1306, species assumed: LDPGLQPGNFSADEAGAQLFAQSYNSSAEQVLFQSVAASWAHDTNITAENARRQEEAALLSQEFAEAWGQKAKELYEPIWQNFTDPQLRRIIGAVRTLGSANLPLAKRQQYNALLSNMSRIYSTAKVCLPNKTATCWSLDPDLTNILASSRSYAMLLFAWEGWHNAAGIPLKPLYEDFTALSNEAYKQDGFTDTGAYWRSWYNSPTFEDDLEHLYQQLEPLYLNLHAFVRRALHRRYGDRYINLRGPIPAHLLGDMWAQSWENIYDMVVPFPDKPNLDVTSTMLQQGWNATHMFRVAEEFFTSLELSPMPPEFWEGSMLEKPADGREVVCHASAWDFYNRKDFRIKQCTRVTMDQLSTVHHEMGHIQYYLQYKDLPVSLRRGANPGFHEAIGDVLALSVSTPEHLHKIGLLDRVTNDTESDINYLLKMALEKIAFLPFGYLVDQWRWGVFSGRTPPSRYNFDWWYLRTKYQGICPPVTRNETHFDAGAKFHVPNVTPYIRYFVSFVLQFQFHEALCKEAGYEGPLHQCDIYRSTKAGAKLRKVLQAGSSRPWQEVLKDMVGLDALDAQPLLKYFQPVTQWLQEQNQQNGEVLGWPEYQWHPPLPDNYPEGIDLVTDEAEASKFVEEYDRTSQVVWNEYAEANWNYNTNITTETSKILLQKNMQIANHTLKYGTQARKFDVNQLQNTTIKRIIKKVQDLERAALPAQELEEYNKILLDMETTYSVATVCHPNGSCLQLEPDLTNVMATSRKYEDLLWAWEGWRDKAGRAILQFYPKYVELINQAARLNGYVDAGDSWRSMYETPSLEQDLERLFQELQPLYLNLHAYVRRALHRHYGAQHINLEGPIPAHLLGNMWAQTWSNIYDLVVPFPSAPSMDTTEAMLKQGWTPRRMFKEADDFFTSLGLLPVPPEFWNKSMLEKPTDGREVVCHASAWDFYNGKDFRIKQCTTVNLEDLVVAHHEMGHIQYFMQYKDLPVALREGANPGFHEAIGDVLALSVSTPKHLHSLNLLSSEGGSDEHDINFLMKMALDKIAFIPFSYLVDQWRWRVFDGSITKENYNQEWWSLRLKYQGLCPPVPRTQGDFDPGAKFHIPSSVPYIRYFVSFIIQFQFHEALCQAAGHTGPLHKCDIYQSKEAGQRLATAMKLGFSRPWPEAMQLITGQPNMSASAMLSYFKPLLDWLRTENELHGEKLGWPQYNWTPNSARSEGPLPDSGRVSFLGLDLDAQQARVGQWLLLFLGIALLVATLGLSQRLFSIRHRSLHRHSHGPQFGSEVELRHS

SMILES | IC50 [µM]
CC[C@H](C)[C@H](N)C(=O)N[C@H](C(=O)N1CCC[C@H]1C(=O)O)[C@@H](C)O [ITP, Ile-Thr-Pro] | 50
CSCC[C@H](N)C(=O)N[C@@H](C)C(=O)N1CCC[C@H]1C(=O)O [MAP, Met-Ala-Pro] | 3.8

— patent publication US20090304869A1, “Peptides Having an Ace Inhibiting Effect” (priority 2005, published 2009)
